Test results from patent US10960087B2, “Compositions and methods for treatment of diabetic retinopathy” (NOVARTIS AG, priority 2007, dated 2021).

Protein sequences, listed by entry. Tags and fused reporters are not part of them. Residues count along the entry.
UniProt P05107, 23-769: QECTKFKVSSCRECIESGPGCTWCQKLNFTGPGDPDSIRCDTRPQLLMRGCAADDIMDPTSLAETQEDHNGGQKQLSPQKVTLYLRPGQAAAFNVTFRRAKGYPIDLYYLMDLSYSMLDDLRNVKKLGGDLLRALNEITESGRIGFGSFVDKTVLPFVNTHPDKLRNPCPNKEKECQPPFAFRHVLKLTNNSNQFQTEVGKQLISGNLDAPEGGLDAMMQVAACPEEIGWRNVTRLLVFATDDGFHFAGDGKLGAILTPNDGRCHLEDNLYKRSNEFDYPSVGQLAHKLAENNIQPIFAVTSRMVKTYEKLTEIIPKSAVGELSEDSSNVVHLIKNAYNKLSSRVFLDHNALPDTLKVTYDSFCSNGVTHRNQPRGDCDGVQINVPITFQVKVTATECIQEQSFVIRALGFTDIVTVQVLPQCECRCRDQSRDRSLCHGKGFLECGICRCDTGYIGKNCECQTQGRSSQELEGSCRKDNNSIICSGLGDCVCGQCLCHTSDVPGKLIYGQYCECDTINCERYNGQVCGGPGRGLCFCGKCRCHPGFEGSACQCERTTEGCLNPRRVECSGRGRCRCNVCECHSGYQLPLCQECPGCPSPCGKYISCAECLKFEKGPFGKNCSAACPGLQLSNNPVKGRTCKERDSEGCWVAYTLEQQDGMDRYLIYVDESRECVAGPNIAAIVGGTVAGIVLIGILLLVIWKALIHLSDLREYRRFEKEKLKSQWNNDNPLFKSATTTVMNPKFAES
UniProt P20701, 26-1170: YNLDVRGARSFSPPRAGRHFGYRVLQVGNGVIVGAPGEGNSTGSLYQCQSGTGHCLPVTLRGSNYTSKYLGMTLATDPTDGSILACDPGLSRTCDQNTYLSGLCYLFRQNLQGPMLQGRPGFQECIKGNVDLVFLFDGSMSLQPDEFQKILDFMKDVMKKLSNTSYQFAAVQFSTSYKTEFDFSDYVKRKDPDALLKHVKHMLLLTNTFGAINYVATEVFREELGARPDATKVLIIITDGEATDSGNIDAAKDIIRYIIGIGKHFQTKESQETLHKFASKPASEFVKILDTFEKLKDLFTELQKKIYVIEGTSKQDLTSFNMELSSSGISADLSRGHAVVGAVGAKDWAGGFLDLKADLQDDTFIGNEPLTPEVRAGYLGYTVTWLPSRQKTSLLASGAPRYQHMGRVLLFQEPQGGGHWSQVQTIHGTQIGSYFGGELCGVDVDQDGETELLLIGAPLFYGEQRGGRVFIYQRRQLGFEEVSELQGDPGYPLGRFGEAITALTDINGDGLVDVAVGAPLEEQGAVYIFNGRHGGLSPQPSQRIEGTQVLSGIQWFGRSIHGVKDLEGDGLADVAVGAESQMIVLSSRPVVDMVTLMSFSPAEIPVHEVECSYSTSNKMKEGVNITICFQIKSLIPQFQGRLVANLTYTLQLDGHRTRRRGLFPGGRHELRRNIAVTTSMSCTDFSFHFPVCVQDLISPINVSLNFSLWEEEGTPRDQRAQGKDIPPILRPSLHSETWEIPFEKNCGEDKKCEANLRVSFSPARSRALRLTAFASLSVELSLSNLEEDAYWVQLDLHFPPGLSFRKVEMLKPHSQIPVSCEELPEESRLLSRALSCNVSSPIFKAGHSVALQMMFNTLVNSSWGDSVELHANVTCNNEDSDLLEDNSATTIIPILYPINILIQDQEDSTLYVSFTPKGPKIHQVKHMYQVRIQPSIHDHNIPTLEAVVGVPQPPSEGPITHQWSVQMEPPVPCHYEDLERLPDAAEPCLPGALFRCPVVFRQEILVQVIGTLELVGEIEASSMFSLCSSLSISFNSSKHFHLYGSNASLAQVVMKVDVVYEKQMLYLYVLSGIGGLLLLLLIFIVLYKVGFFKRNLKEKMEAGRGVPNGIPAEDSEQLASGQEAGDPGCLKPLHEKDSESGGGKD

How the values were obtained:
[1] = target: T1, binding of compound 2B to LFA-1 (Homo sapiens, UniProt P05107+P20701); assay: LFA-1/small molecule ligand binding ELISA; details: increasing antagonist concentrations
[2] = target: T1, binding of compound 2B to LFA-1; assay: LFA-1/small molecule ELISA, antagonist competition; details: read-out: IC50, inhibition of binding of compound 2B to LFA-1, 25 nM compound 2B

B1: sICAM-1: soluble ICAM-1, molecular form of the natural ligand of LFA-1 (protein)
chain: QTSVSPSKVILPRGGSVLVTCSTSCDQPKLLGIETPLPKKELLLPGNNRKVYELSNVQEDSQPMCYSNCPDGQSTAKTFLTVYWTPERVELAPLPSWQPVGKNLTLRCQVEGGAPRANLTVVLLRGEKELKREPAVGEPAEVTTTVLVRRDHHGANFSCRTELDLRPQGLELFENTSAPYQLQTFVLPATPPQLVSPRVLEVDTQGTVVCSLDGLFPVSEAQVHLALGDQRLNPTVTYGNDSFSAKASVSVTAEDEGTQRLTCAVILGNQSQETLQTVTIYSFPAPNVILTKPEVSEGTEVTVKCEAHPRAKVTLNGVPAQPLGPRAQLLLKATPEDNGRSFSCSATLEVAGQLIHKNQTRELRVLYGPRLDERDCPGNWTWPENSQQTPMCQAWGNPLPELKCLKDGTFPLPIGESVTVTRDLEGTYLCRARSTQGEVTRKVTVNVLSPRYE
Q: How did the “Effect on compound 2B binding curves” value [1] turn out when B1 was run?
A: The value was “also showed a similar effect”.

Q: And the IC50 [2]?
A: Its IC50 is 1200 nM.
